Results taken from ChEMBL document CHEMBL1158577, “Role of hydrophobic substituents on the terminal nitrogen of histamine in receptor binding and agonist activity: development of an orally active histamine type 3 receptor agonist and evaluation of its antistress activity in mice” (J Med Chem, 2010).

Chains of the proteins cited; added tags and fusions are not shown. Lines headed by an entry give the natural chain unless they say otherwise; changes in a name come on top.
UniProt Q9Y5N1: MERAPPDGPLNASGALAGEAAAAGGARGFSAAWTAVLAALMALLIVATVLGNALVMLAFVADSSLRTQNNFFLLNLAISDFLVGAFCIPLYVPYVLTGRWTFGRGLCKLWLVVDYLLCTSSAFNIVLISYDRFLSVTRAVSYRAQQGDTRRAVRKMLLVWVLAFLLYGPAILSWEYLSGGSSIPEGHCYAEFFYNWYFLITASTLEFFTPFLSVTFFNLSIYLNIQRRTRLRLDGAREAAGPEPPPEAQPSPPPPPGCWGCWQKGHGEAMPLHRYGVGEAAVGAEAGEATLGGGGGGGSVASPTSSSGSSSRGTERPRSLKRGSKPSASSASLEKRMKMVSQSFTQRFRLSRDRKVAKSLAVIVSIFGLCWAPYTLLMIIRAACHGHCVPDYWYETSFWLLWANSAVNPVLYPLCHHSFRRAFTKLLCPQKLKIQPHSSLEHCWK

Columns and labels:
Histamine H3 receptor [1] = target: T1, Histamine H3 receptor (Homo sapiens, UniProt Q9Y5N1); assay: Displacement of [3H[N-alpha-methylhistamine form human recombinant histamine H3 receptor expressed in CHO cells after 1 hr by liquid scintillation counting; type: cell-based
How it was run: (§1)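 Used CHO cells stably expressing the human H3R for both affinity (pKi) and functional agonist measurements. Each value is the mean ± SEM of n = 3.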

Histamine H3 receptor [2] = target: T1, Histamine H3 receptor; assay: Agonist activity at human recombinant histamine H3 receptor expressed in CHO cells assessed as [35S]GTPgammaS binding after 1 hr by liquid scintillation counting; type: functional, cell-based; how it was run: as §1

Question: With `c1ccc(NCCc2c[nH]cn2)cc1` as the compound, how does the Ki (Histamine H3 receptor [1]) read?
Answer: 56 nM

Question: And the EC50 (Histamine H3 receptor [2])?
Answer: 320 nM
